The results in this text go back to PMC6193536 (Bioorganic & medicinal chemistry letters, 2018).

For this assay, the system named is panel of human kinases.

For the molecule `CN1CCC(c2nc(-c3cccc(S(C)(=O)=O)c3)c(-c3ccnc(Nc4ccc(N5CCNCC5)cc4)n3)s2)CC1` [16a], the “kinase selectivity against a panel of human kinases” value was “much improved kinase selectivity profile”.
